Results on eight compounds are retold here after ChEMBL document CHEMBL1143107 (Bioorg Med Chem, 2008).

Where only a bound is given, the exact number is not on record here.

Assay [1] is filed under the species Homo sapiens. Description: Ratio of IC50 for human COX1 to IC50 for human COX2.
The species entered for assay [2] is Homo sapiens. Put plainly: Ratio of IC50 for human COX1 to IC50 for human COX2 in human whole blood. Type of assay: tissue-based.

As to `CS(=O)(=O)c1ccc(-c2nc(NCc3ccccc3)cc(C(F)(F)F)n2)cc1`, the Ratio IC50 is > 71 in the assay listed under Homo sapiens [1] and 1410 in the assay listed under Homo sapiens [2].
Regarding `CC(C)(C)c1cc(NCc2cccs2)nc(-c2ccc(S(C)(=O)=O)cc2)n1`, the Ratio IC50 in the assay filed under Homo sapiens [2] was > 322.
In the case of `CS(=O)(=O)c1ccc(-c2nc(NCc3cccs3)cc(C(F)(F)F)n2)cc1`, the Ratio IC50 is > 4460 in the assay listed under Homo sapiens [1] and 10700 in the assay listed under Homo sapiens [2].
Consider `CC(C)c1cc(NCc2cccs2)nc(-c2ccc(S(C)(=O)=O)cc2)n1`, for which, in the assay filed under Homo sapiens [2], the Ratio IC50 was > 1020.
Consider `CS(=O)(=O)c1ccc(-c2nc(NCc3ccc(Cl)s3)cc(C(F)(F)F)n2)cc1`, for which, in the assay filed under Homo sapiens [2], the Ratio IC50 was > 18600.
Turning to `COCCOc1cc(NCc2cccs2)nc(-c2ccc(S(C)(=O)=O)cc2)n1`, the Ratio IC50 in the assay filed under Homo sapiens [2] is > 41800.
For the compound `CC(C)CNc1cc(C(F)(F)F)nc(-c2ccc(S(C)(=O)=O)cc2)n1`, the results for the Ratio IC50 in the assay filed under Homo sapiens [1] and in the assay listed under Homo sapiens [2] were > 13 and > 127, respectively.
On to `CCN(CC)c1cc(NCc2cccs2)nc(-c2ccc(S(C)(=O)=O)cc2)n1`, for which the Ratio IC50 in the assay filed under Homo sapiens [2] was > 1640.
